This data set is described as follows: Hemolysis assay using human erythrocytes. In kind it is cell-based. The settings on record: pH 7.4, 1 hour at 37° C., read-out: Cytotoxicity EC50 RBCs.

Take `CC[C@H](C)[C@H](NC(=O)CN)C(=O)NCC(=O)N[C@@H](C)C(=O)N[C@H](C(=O)N[C@@H](CC(C)C)C(=O)N[C@@H](CCCCN)C(=O)N[C@H](C(=O)N[C@@H](CC(C)C)C(=O)N[C@H](C(=O)N[C@H](C(=O)NCC(=O)N[C@@H](CC(C)C)C(=O)N1CCC[C@H]1C(=O)N[C@@H](C)C(=O)N[C@@H](CC(C)C)C(=O)N[C@H](C(=O)N[C@@H](CO)C(=O)N[C@@H](Cc1c[nH]c2ccccc12)C(=O)N[C@H](C(=O)N[C@@H](CCCCN)C(=O)N[C@@H](CCCNC(=N)N)C(=O)N[C@@H](CCCCN)C(=O)N[C@@H](CCCNC(=N)N)C(=O)N[C@@H](CCC(N)=O)C(=O)N[C@@H](CCC(N)=O)C(N)=O)[C@@H](C)CC)[C@@H](C)CC)[C@@H](C)O)[C@@H](C)O)C(C)C)C(C)C` [melittin, reference compound]: the HC50 at 1 h is 2 µg/mL.

Values taken from patent publication US8278309B2, “Synthetic mimetics of host defense and uses thereof” (priority 2008, dated 2012).
